Data set [1] is described as follows: Thioflavin T (ThT) aggregation assay. Conditions: peptide 20–550 µM, up to 85 h, 20 mM NaPi, pH 7.4, 50 mM NaCl, 37 °C, 300 rpm, glass bead, 25 µM ThT, triplicate. The format is physicochemical. As to the method: All ThT aggregation assays were done in Greiner 96-well half-area, clear bottom, low-binding plates. The measurements themselves were done in a BMG CLARIOstar plate reader at 37 °C and 300 rpm shaking in orbital mode with one glass bead (0.75–1 mm, Roth) per well. Wells with samples were always surrounded by wells filled with liquid, either other samples or 150 μl water, to counter potential artefacts due to evaporation. […] Final concentrations of 25 µM ThT and 0.04% sodium azide (NaN3) were added. The plate was sealed with sealing tape and put into the plate reader, heated to 37 °C, and ThT fluorescence was read in 1000 cycles of 300 s each using bottom optics with excitation at 448 nm (10 nm bandwidth) and emission at 482 nm (10 nm bandwidth). […] Samples contained 40 µM ThT and 0.04% NaN3.
Fig. 4 Test set of eight protein segments. (A) List of the investigated peptides. Underlined stretches in the peptide sequences correspond to the predicted amyloidogenic β-hairpins. A peptide was considered ‘soluble’ when no visible precipitation occurred upon dissolution of the lyophilized peptide in 20 mM NaPi, pH 7.4, 50 mM NaCl, to a final concentration of 20 µM. […] (B) Conformations of investigated segments (red) in the context of their source proteins.

Data set [2] is described as follows: Atomic force microscopy (AFM) of samples at the end of ThT aggregation assays. The format is physicochemical. The note with it: end of ThT aggregation assay in 20 mM NaPi, pH 7.4, 50 mM NaCl; dried on mica. As to the method: For AFM imaging, 2 μl samples were taken out of the wells at the end of the ThT aggregation assays, put onto a freshly cleaved muscovite mica surface and dried during incubation for 10 min under the clean bench. Subsequently, the samples were washed with 100 μl ddH2O in three steps and dried with a stream of N2 gas. Imaging was performed in intermittent contact mode (AC mode) in a JPK NanoWizard 3 atomic force microscope using a silicon cantilever with silicon tip (OMCL-AC160TS-R3, Olympus) with a typical tip radius of 9 ± 2 nm, a force constant of 26 N/m and resonance frequency around 300 kHz. The images were processed using JPK DP Data Processing Software (version spm-5.0.84).

As for `CC[C@H](C)[C@H](NC(=O)[C@H](CCSC)NC(=O)[C@@H](NC(=O)[C@H](CC(=O)O)NC(=O)[C@H](CO)NC(=O)[C@H](CCC(N)=O)NC(=O)[C@H](CCCNC(=N)N)NC(=O)[C@@H]1CCCN1C(=O)[C@H](CO)NC(=O)[C@H](C)NC(=O)[C@H](CCCNC(=N)N)NC(=O)[C@H](Cc1ccccc1)NC(=O)[C@@H](NC(=O)[C@@H](NC(=O)CNC(=O)[C@H](Cc1ccccc1)NC(=O)[C@H](CCCNC(=N)N)NC(=O)[C@@H](N)CC(=O)O)C(C)C)C(C)C)C(C)C)C(=O)N[C@H](C(=O)N[C@@H](C)C(=O)NCC(=O)N[C@H](C(=O)N[C@@H](CC(C)C)C(=O)N[C@H](C(=O)N[C@@H](CC(N)=O)C(=O)N[C@@H](CCCCN)C(=O)O)[C@@H](C)O)[C@@H](C)O)C(C)C` [NDUFS7(104−129)], in data set [1], the ThT entry is on record as “+”. Besides, the AFM aggregate morphology result in data set [2] is “fibrillar aggregates confirming amyloid formation were detected”.

(Values after paper PMC10787225 (Computational and Structural Biotechnology Journal, 2023).)
